Tests used:
Oryctolagus cuniculus [1] = species on record: Oryctolagus cuniculus; experiment: Concentration required to inhibit electrically induced contraction of superfused guinea-pig trachea was determined
Oryctolagus cuniculus [2] = species on record: Oryctolagus cuniculus; experiment: Duration action in guinea pig

Q: What does the source list for `COc1ccc(CC(C)NCC(O)c2ccc(O)c(NC=O)c2)cc1` (configuration not stated) [FORMOTEROL]?
A: IC50 (Oryctolagus cuniculus [1]): 1.4 nM; Duration (Oryctolagus cuniculus [2]): 1.92 h

From ChEMBL document CHEMBL1137837, “Long-chain formoterol analogues: an investigation into the effect of increasing amino-substituent chain length on the beta2-adrenoceptor activity” (Bioorg Med Chem Lett, 2004)
